Consider one compound from article PMC5080911 (Journal of medicinal chemistry, 2016).

The test system of the experiment is tubulin. Kind of experiment: Tubulin polymerization assay. The conditions noted are these: 3 µM, 37 °C, monitored 1 h.

With `CC(=O)O[C@H]1C(=O)[C@@]2(C)[C@H]([C@H](OC(=O)c3ccccc3)[C@]3(O)C[C@H](OC(=O)[C@H](O)[C@@H](NC(=O)c4ccccc4)c4ccccc4)C(C)=C1C3(C)C)[C@]1(OC(C)=O)CO[C@@H]1C[C@@H]2O` [PTX, Paclitaxel, reference compound], the “time to reach maximum/plateau of tubulin polymerization” value is ~ 16 min.
